# Experimental data published in PubChem BioAssay AID1224905 (ICCB-Longwood Screening Facility, Harvard Medical School, 2016).
# Chains of the proteins cited; added tags and fusions are not shown.
# UniProt P08753, whole entry, looked up: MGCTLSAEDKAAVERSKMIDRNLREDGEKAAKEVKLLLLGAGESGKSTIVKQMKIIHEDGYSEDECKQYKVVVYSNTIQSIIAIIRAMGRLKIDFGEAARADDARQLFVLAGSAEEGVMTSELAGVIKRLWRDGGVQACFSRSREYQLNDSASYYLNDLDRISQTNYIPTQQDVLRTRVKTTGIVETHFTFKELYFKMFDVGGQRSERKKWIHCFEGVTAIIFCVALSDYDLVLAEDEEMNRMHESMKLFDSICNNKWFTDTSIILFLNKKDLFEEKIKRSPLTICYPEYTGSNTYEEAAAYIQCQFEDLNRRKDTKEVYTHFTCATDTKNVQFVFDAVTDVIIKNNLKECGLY
# Among all 210,000 compounds or so, about 880 (0.42%) were called active.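 The calls were made as follows: active = replicate mean at 85% of control or lower with very high polarization wells dropped (limit read from the data); inactive = the rest.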 The full list was thinned out, with actives kept by preference.
# Target: Guanine nucleotide-binding protein G(i) subunit alpha-3 (Rattus norvegicus) (UniProt P08753)
# Assay: disruptors of GIV-Galphai3 protein-protein interaction – biochemical, fluorescence polarization, FITC-GIV GBA peptide, rat Galphai3, primary screen (AID 1224905);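 also: lower values mean more displacement of the GIV peptide from Galpha-i3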
# Conditions: Galpha-i3/FITC-GIV peptide fluorescence polarization, 90 min, active compounds read low
row,SMILES,percent of control (FP)
1,CN1CCc2c(c(S)[nH]c(=S)c2C#N)C1,35% (active)
2,O=C(NCCN1CCOCC1)c1cc2cccnc2n(Cc2ccccc2)c1=O,"108% [scaled: aluminum fluoride 0%, vehicle 100%] (inactive)"
3,CCOC(=O)C1CC2CCCN2C12C(=O)N(Cc1ccccc1)c1ccccc12 (stereo not given),101% (inactive)
4,O=c1c2ccccc2nc(COc2ccc(Cl)cc2)n1-c1ccc(Br)cn1,98.1% (inactive)
5,Cc1nc2nc(-c3ccc(C(C)(C)C)cc3)nn2c(C)c1CC(=O)N1CCN(CCO)CC1,"102% [scaled: aluminum fluoride 0%, vehicle 100%] (inactive)"
